IC50 data for 2 compounds are collected here from patent publication US20130345254A1, “CYCLOHEXANE SUBSTITUTED AMINO CYCLOPENTANE DERIVATIVES AS USEFUL CCR2 ANTAGONISTS” (priority 2011, published 2013).

Sequences of proteins named here, by UniProt entry; tags and fusion partners are left off.
UniProt P41597, whole entry: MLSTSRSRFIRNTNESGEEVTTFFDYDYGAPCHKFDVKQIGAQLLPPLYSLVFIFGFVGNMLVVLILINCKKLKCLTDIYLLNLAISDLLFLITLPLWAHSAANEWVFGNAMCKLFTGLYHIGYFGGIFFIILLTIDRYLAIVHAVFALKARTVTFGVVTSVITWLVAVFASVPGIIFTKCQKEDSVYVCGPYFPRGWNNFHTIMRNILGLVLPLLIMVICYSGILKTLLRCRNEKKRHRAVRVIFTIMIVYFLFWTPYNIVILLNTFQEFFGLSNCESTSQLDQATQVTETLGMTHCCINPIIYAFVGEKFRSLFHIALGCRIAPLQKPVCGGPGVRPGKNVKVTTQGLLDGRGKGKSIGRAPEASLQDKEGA

For the assay, the target named is human CCR2 (Homo sapiens, UniProt P41597). Briefly: CCR2 membrane binding assay (SPA, 125I-rhMCP-1 competition). The settings on record: membranes from Ba/F3 cells transfected with human CCR2; 0.03 nM 125I-rhMCP-1; 4 h room temperature. The method, then: The radio-ligand binding assay was done using scintillation proximity assay (SPA) technology. Briefly, membranes (1 μg per assay point) from Ba/F3 cells transfected with human CCR2, and wheat germ agglutinin-coated SPA beads (80 μg per point; Amersham, Arlington Heights, Ill.), were pre-incubated for 30 min at room temperature in CCR2 buffer (50 mM HEPES (pH=7.4), 10 mM MgCl2, 10 mM NaCl, 1 mM CaCL2, 0.1% BSA, 10 μg/ml Saponin). At this point pre-bound SPA bead, membrane complex was incubated at room temperature for 4 h with varying concentrations of punitive CCR2 antagonists (in 1% DMSO, final) and 0.03 nM ^125I-rhMCP-1 in CCR2 Buffer (S.A. 2200 Ci/mmol, PerkinElmer Life and Analytical Science, Boston, Mass.; NEX332). Binding competition was measured using a 1450 Microbeta Trilux counter (Wallac, Gaithersburg, Md.). Binding constants (IC50 and slope) were calculated using GraphPad Prism software (GraphPad Software, Inc., La Jolla Calif.).

In the case of `CC(C)[C@]1(C(=O)N2CCc3ncc(C(F)(F)F)cc3C2)CC[C@@H](NC2CCC(=Cc3ccccc3)CC2)C1` (some centres unmarked), the IC50 (as a rule, the point on the concentration scale where inhibition reaches its midpoint) was determined as 18 nM.
For `O=C(NCc1cc(C(F)(F)F)cc(C(F)(F)F)c1)[C@H]1CC[C@@H](NC2CCC(=Cc3ccccc3)CC2)C1` (some centres unmarked) the value was 3450 nM.
